{"source": "patent US5180742A", "about": "“Quinone derivatives, their production and use” (Takeda Chemical Industries, Ltd., priority 1984, dated 1993)", "tested_on": "mice of ICR breed", "type": "in vivo", "conditions": "1000 mg/kg oral, male ICR mice, 7 days", "from_the_text": "Acute Toxicity Test in Mice (Acute Toxicity)\n1000 Milligrams per kilogram of each set specimen was applied orally to groups of 5 five-weeks old male mice of ICR breed, and a number of dead animals observed for the 7-days period was counted."}
{"smiles": "CC1=C(C)C(=O)C(C(CCCCCC(=O)O)c2ccccc2)=C(C)C1=O", "note": "(stereo not shown) [Compound No. 50, 7-(3,5,6-trimethyl-1,4-benzoquinon-2-yl)-7-phenylheptanoic acid]", "values": [{"measurement": "Acute toxicity (number of dead animals/number of animals used)", "result": "0/5"}]}
